Molecular target: SMYD3 (Homo sapiens (Human), UniProt Q9H7B4)
Experiment: SMYD3 biochemical assay (SMYD3 enzyme assay on MEKK2 protein substrate, scintillation proximity assay)
Settings: 3H-SAM, SPA, IC50 values are an average of n = 1 to n = 50, read-out: SMYD3 Biochem IC50
Description: S-adenosylmethionine (SAM), S-adenosylhomocysteine (SAH), Tris, Tween20, dimethylsulfoxide (DMSO), bovine skin gelatin (BSG), and Tris(2-carboxyethyl)phosphine hydrochloride solution (TCEP) were purchased from Sigma-Aldrich at the highest level of purity possible. ^3H-SAM was purchase from American Radiolabeled Chemicals with a specific activity of 80 Ci/mmol. 384-well opaque white OptiPlates and SPA beads (Perkin Elmer, catalog # RPNQ0013) were purchased from PerkinElmer.
N-terminally GST-tagged MEKK2 (MAP3K2) protein corresponding to reference sequence AAF63496.3 was purchased from Life Technologies (catalog # PV4010). This protein was expressed in High Five insect cells and purified to >85 % purity. Protein identity was confirmed by MS/MS analysis after proteolytic digestion. The protein sequence used was:
Full-length human SMYD3 isoform 1 (BAB86333) was inserted into a modified pET21b plasmid containing a His6 tag and TEV and SUMO cleavage sites. Because two common variants of SMYD3 exist in the population, site directed mutagenesis was subsequently performed to change amino acid 13 from an asparagine to a lysine, resulting in plasmid pEPZ533. A lysine at position 13 conforms to the more commonly occurring sequence (NP_001161212).
E. coli (BL21 codonplus RIL strain, Stratagene) were transformed with plasmid pEPZ553 by mixing competent cells and plasmid DNA and incubating on ice for 30minutes followed by heat shock at 42° C. for 1 minute and cooling on ice for 2 minutes. Transformed cells were grown and selected on LB agar with 100 μg/mL ampicillin and 17 μg/mL chloramphenicol at 37° C. overnight. A single clone was used to inoculate 200 mL of LB medium with 100 μg/mL ampicillin and 17 μg/mL chloramphenicol and incubated at 37° C. on an orbital shaker at 180 rpm. Once in log growth, the culture was diluted 1:100 into 2 L of LB medium and grown until OD600 was about 0.3 after which the culture was incubated at 15° C. and 160 rpm. Once OD600 reached about 0.4, IPTG was added to a final concentration of 0.1 mM and the cells were grown overnight at 15° C. and 160 rpm. Cells were harvested by centrifugation at 8000 rpm, for 4 minutes at 4° C. and stored at −80° C. for purification.
Expressed full-length human His-tagged SMYD3 protein was purified from cell paste by Nickel affinity chromatography after equilibration of the resin with Buffer A (25 mM Tris, 200 mM NaCl, 5% glycerol, 5 mM β-mercaptoethanol, pH7.8). The column was washed with Buffer B (Buffer A plus 20 mM imidazole) and His-tagged SMYD3 was eluted with Buffer C (Buffer A plus 300 mM imidazole). The His tag, TEV and SUMO cleavage sites were removed generating native SMYD3 by addition of ULP1 protein at a ratio of 1:200 (ULP1:SMYD3). […]

By UniProt entry, the sequences of proteins in these tests, tags left out. Where a name states a change or a piece, a line headed by the entry shows the natural chain unless it says otherwise.
UniProt Q9H7B4: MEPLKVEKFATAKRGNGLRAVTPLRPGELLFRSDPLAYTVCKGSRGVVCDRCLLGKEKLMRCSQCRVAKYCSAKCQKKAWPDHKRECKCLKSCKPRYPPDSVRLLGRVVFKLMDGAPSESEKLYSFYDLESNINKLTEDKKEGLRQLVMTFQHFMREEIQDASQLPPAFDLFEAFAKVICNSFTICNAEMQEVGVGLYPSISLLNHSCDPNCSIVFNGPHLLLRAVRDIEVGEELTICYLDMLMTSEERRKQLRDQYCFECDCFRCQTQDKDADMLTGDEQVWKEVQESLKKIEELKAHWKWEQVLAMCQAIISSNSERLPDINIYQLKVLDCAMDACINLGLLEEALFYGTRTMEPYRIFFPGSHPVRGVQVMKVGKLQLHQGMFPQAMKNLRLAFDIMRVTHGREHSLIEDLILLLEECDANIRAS

IC50 [µM]	Compound
0.625	N[C@H]1CCC[C@H](C(=O)N[C@H]2CC[C@H](NC(=O)c3cc(C4CC4)on3)CC2)C1 [compound 20, N-((1S,4r)-4-((1S,3S)-3-aminocyclohexane-1-carboxamido)cyclohexyl)-5-cyclopropylisoxazole-3-carboxamide]
2.56	CC(C)CN[C@H]1CC[C@H](NC(=O)c2cc(C3CC3)on2)CC1 [compound 24, 5-cyclopropyl-N-((1r,4r)-4-(isobutylamino)cyclohexyl) isoxazole-3-carboxamide]
1.69	NC[C@H](O)CC(=O)N[C@H]1CC[C@H](NC(=O)c2cc(C3CC3)on2)CC1 [compound 30, N-((1R,4r)-4-((R)-4-amino-3-hydroxybutanamido)cyclohexyl)-5-cyclopropylisoxazole-3-carboxamide]
1.07	NC[C@@H](O)CC(=O)N[C@H]1CC[C@H](NC(=O)c2cc(C3CC3)on2)CC1 [compound 31, N-((1S,4r)-4-((S)-4-amino-3-hydroxy-butanamido)cyclohexyl)-5-cyclopropylisoxazole-3-carboxamide]

Source: patent publication US10106510B2, “Substituted isoxazoles for treating cancer” (EPIZYME, INC., priority 2014, dated 2018)
